Data reported in patent US7598255B2 (Janssen Pharmaceutica NV, priority 2005, dated 2009).

Columns and labels:
5-HT2A receptor [1] = target: T1, 5-HT2A receptor (Homo sapiens, UniProt P28223); assay: Affinity for 5-HT2A receptor binding sites, radioligand binding with [3H]ketanserin; details: read-out: Ki 5-HT2A, rat cortex membranes (assay 2) or NIH3T3 h5-HT2A membranes (assay 3), table does not say which
5-HT2A receptor [2] = target: T1, 5-HT2A receptor; assay: In vitro functional assay for 5-HT2 receptor (intracellular calcium, FLIPR), 5-HT2A; assay type: cell-based; details: same cell lines as receptor binding, read-out: pKb 5-HT2A (converted)
Description: The 5-HT2 receptors are linked to the Gq family of G proteins and to subsequent activation of phospholipase C, induction of phosphoinositide metabolism and to an increase in intracelular calcium concentration. The same cell lines as described in the previous section (receptor binding) were used for the FLIPR experiments.

Row | SMILES | Ki (5-HT2A receptor [1]) | Kb (5-HT2A receptor [2])
1 | Cc1ccc(-c2nc(C3CCCC3)nc3c2CCNCC3)cc1 [Example 47, 2-Cyclopentyl-4-p-tolyl-6,7,8,9-tetrahydro-5H-pyrimido[4,5-d]azepine] | 2.5 nM | –
2 | CCC(C)c1nc2c(c(-c3ccc(F)cc3)n1)CNCC2 (centres unmarked) [Example 3, 2-sec-Butyl-4-(4-fluoro-phenyl)-5,6,7,8-tetrahydro-pyrido[4,3-d]pyrimidine hydrochloride] | 11 nM | –
3 | CC(C)Cc1nc2c(c(-c3ccc(F)cc3)n1)CNCC2 [Example 37, 4-(4-Fluoro-phenyl)-2-isobutyl-5,6,7,8-tetrahydro-pyrido[4,3-d]pyrimidine] | 40 nM | –
4 | Fc1ccc(-c2nc(Cc3ccccc3)nc3c2CNCCC3)cc1 [Example 69, 2-Benzyl-4-(4-fluoro-phenyl)-6,7,8,9-tetrahydro-5H-1,3,6-triaza-benzocycloheptene hydrochloride] | 140 nM | 1000 nM

Structures can show the parent of a compound that is named as a salt.
